Assay results reported in patent US11963939B2, “Use of N-acetylcysteine to treat central nervous system disorders” (Neuronasal, Inc., priority 2017, dated 2024).

Target: T1, recombinant ALOX5 (Homo sapiens, UniProt P09917)
T1 sequence (P09917 1-674): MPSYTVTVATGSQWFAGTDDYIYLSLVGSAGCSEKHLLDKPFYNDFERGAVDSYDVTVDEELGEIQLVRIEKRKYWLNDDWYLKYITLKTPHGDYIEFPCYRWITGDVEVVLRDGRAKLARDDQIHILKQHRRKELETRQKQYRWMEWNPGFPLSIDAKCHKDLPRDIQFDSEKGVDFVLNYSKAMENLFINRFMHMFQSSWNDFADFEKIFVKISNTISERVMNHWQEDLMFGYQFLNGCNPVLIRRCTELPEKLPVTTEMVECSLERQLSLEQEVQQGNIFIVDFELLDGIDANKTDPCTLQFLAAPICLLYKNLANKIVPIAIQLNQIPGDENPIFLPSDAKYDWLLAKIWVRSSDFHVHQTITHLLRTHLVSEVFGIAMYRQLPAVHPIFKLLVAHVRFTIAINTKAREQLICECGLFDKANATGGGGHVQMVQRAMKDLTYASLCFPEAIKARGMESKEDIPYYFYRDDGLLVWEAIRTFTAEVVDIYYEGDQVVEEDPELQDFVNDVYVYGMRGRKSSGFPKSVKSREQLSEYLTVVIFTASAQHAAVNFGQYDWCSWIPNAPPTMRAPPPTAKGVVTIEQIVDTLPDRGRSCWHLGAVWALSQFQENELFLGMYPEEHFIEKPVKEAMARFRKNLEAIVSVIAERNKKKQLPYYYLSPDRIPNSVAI
Assay: Lipoxygenase UV/Vis-based IC50 assay with recombinant ALOX5
Type: biochemical
Conditions: test tube assay
Experimental: Lipoxygenase UV/Vis-based IC50 assay: Inhibition potencies were determined by following the formation of conjugated diene products, 5-HpETE [ε=27000 M^−1 cm^−1 for AA turnover) at 234 nm using a UV/Vis spectrophotometer. All reaction mixtures were 2 mL in volume, and the reaction mixtures were constantly stirred using a magnetic stir bar at room temperature (23° C.). All reactions were carried out in a buffer containing 200 μM ATP and 10 μM AA. The AA concentration of a sample was verified by full turnover with soybean-1 lipoxygenase and quantifying the product concentration. Inhibitors were stored in DMSO at −20° C. Enzymatic reactions were initiated by adding approximately 100 nM-300 nM ammonium sulfate-precipitated wildtype enzyme. IC50 values were obtained by determining the enzymatic rate at a minimum of five inhibitor concentrations, plotting the enzymatic rate against inhibitor concentration, and performing a hyperbolic saturation curve fit. Inhibitor concentrations were assayed in duplicate or triplicate.
Significance was determined by two-way ANOVA and Bonferroni's post hoc test.

Compound: CC(=O)N(O)C/C=C/c1cccc(Oc2ccccc2)c1 [BW A4C]
- Inhibition of ALOX5 activity: effective in inhibiting ALOX5
